The results in this text go back to PubChem BioAssay AID1457 (National Center for Advancing Translational Sciences (NCATS), 2008).

Several values for one entry are separate records, joined by “and”; a condition that tells them apart may be missing. Equal entries are not always repeated. The list shows a part of the results, in another mix than the full data. Activity calls are given as the source filed them. Calls follow the shape of the dose curve; as a rule, active = well fitted inhibition curve with a large enough effect; inconclusive = small, poorly fitted or top-dose-only effect; inactive = no such curve, though single readings can be large or run the other way.

This assay in a line: qHTS Assay for Identifying the Cell-Membrane Permeable IMPase Inhibitors: Potentiation with Lithium.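 Also: IP1 builds up when IMPase is blocked and the TR-FRET signal falls; plate controls were basal vehicle for no effect and high inhibitor control for full effect; nearly all actives have a fitted effect of over 50% in size.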 As to conditions: CHO-M1 cells, IP1 TR-FRET (IP-One), carbachol + lithium; at 59.4 µM (top of the series). On the technique in general: qHTS replaces the single test concentration by a dilution series.
Turning to `O=[N+]([O-])C(Cl)(Cl)Cl`, the activity, negative = IMPase inhibition is inactive: 6.25%.

With `CN(CCCl)CCCl`, the activity, negative = IMPase inhibition was inactive: 18.1% and inactive: 12.9%.
